Experimental data taken from patent EP4834897A1, “COMPOUNDS WITH TWO AZAHETEROCYCLES SUBSTITUTED ISOINDOLINONE SKELETON AND USES THEREOF” (dated 2026).

By UniProt entry, the sequences of proteins in these tests, tags left out.
UniProt Q96SW2, whole entry: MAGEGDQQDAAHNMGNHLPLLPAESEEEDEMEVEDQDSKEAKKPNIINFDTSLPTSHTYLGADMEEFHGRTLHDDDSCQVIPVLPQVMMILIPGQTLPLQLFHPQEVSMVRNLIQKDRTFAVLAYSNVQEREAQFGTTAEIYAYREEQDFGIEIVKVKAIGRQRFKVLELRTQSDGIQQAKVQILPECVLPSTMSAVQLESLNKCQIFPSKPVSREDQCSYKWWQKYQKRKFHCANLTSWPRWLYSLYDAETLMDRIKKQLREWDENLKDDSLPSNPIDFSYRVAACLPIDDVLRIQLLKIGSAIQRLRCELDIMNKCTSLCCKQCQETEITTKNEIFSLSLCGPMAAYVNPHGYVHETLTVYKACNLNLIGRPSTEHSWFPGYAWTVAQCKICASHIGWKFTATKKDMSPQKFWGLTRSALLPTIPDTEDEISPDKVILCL
UniProt Q9UKS7, whole entry: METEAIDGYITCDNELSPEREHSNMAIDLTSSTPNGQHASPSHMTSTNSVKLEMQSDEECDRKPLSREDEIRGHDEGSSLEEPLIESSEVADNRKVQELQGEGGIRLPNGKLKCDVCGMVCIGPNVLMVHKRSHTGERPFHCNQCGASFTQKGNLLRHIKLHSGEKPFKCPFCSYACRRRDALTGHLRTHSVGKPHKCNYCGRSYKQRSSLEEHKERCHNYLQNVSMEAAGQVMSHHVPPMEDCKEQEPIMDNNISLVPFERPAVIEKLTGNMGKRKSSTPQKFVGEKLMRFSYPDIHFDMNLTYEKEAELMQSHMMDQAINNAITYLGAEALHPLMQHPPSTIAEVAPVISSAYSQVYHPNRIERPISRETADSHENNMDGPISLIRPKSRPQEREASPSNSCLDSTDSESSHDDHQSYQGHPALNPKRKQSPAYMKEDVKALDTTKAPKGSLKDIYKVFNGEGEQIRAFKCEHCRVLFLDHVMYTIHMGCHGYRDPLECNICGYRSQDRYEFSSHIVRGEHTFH
UniProt Q9UKT9, whole entry: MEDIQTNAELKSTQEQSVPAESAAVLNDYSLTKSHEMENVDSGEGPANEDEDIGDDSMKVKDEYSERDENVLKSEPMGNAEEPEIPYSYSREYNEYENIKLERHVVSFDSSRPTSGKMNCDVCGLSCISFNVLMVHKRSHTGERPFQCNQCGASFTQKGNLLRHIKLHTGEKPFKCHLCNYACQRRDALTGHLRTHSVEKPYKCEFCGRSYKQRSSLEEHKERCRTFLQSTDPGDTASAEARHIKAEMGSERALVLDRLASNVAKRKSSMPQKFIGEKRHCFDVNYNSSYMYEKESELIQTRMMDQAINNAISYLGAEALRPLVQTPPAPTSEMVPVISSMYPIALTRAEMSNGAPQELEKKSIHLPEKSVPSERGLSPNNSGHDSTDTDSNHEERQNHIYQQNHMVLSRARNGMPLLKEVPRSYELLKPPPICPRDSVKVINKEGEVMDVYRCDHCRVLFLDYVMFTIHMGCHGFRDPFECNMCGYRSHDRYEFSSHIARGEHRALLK
UniProt P48729, whole entry: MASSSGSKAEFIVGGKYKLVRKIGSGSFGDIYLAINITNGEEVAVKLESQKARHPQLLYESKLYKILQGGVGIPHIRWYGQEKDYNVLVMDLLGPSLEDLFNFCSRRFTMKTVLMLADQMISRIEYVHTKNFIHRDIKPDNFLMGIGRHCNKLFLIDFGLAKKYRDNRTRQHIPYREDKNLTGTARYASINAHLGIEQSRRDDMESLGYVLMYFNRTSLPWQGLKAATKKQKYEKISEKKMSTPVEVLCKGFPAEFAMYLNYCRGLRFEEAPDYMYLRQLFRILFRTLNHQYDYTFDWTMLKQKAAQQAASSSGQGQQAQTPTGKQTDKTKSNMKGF
UniProt Q13422, whole entry: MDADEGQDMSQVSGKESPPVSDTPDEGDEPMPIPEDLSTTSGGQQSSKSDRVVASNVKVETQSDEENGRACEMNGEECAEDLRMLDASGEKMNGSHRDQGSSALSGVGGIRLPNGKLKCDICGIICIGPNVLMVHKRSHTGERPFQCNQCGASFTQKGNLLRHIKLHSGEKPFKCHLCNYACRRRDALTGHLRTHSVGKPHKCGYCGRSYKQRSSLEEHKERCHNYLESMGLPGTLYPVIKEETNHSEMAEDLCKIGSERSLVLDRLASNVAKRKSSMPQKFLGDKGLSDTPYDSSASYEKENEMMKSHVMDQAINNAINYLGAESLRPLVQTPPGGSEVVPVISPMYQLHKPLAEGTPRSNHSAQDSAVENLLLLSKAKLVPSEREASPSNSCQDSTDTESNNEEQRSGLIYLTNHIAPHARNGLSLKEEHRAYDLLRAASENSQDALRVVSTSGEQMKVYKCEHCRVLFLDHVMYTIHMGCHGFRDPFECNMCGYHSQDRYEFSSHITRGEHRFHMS
UniProt P30291, whole entry: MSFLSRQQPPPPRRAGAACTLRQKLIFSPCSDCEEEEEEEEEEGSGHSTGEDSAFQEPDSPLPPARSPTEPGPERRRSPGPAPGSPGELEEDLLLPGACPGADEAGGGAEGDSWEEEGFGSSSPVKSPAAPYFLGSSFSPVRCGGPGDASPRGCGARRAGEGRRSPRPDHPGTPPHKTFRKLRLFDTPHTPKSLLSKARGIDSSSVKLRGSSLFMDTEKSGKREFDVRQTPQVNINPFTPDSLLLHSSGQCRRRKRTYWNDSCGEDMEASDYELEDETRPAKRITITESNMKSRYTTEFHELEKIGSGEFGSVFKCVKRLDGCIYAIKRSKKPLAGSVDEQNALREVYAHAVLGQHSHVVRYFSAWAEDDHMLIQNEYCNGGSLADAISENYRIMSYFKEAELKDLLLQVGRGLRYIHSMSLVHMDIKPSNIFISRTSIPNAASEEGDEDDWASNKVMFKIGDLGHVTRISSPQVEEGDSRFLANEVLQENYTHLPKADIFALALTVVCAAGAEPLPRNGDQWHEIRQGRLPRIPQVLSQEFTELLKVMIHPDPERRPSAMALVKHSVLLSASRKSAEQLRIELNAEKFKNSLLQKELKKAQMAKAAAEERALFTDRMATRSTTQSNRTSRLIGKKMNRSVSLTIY
UniProt P15170, whole entry: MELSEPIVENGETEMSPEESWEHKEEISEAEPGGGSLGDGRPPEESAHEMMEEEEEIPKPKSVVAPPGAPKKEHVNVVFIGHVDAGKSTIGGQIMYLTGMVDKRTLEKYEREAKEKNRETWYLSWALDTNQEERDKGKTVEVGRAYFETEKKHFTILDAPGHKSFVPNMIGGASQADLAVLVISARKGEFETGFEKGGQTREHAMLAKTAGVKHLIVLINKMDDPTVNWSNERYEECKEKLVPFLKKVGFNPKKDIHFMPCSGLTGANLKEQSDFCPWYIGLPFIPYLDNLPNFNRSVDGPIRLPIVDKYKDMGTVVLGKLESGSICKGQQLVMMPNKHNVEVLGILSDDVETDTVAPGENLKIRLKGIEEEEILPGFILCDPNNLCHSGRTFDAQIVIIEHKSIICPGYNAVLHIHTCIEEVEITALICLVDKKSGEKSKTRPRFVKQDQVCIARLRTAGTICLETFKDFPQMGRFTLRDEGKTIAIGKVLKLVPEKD
UniProt Q16531, whole entry partner: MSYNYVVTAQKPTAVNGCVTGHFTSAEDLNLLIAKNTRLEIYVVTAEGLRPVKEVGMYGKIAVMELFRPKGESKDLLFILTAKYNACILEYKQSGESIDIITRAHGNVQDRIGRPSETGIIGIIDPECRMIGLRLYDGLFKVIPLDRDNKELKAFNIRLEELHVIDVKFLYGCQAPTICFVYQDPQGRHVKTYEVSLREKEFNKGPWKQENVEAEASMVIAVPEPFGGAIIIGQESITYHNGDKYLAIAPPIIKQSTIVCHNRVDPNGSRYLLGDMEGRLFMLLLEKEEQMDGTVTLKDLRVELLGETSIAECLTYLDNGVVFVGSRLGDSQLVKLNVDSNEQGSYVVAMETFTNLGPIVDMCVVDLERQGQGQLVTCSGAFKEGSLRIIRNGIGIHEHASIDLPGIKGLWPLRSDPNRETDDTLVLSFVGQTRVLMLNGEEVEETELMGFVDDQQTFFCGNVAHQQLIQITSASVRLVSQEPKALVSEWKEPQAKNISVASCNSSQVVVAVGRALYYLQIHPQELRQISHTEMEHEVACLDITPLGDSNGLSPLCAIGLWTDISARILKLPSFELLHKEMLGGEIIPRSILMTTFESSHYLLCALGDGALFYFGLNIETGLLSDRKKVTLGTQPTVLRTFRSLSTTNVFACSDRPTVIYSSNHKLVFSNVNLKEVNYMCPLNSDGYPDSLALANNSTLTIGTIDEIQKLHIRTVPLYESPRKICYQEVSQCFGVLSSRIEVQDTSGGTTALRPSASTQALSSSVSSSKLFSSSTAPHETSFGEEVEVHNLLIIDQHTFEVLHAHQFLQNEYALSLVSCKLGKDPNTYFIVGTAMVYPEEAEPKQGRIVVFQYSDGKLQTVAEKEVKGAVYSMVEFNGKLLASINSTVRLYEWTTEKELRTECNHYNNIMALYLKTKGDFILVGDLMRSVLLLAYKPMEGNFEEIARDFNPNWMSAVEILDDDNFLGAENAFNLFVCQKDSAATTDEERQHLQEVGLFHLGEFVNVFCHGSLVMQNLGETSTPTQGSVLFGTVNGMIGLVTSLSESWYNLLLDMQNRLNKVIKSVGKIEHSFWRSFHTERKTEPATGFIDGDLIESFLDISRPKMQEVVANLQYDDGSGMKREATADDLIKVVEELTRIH

target: IKZF2 (Homo sapiens, UniProt Q96SW2+Q9UKS7); assay: Western blot assay of substrate protein degradation in hPBMCs; details: 24 hours treatment, compounds at 50 nM and 500 nM (concentration behind the class not stated)

| SMILES | substrate protein remaining % (IKZF2) |
| --- | --- |
| O=C1CCC(N2Cc3cc(C(=O)N4CCC(N5CCN(C(c6ccccc6)c6ccccn6)CC5)C(F)(F)C4)ccc3C2=O)C(=O)N1 (centres unmarked) | A (0% ≤ substrate protein remaining % ≤ 80%) |
| O=C1CCC(N2Cc3cc(CCN4CCC(N5CCC(c6noc7cc(F)ccc67)CC5)C(F)(F)C4)ccc3C2=O)C(=O)N1 (centres unmarked) | A (0% ≤ substrate protein remaining % ≤ 80%) |
| O=C1CCC(N2Cc3c(CN4CCC(N5CCN(c6noc7cc(F)ccc67)CC5)CC4)cccc3C2=S)C(=O)N1 (centres unmarked) | B (80%< substrate protein remaining %≤ 100%) |
| CC1(C)CCC(C(=O)N2CCN(C3CCN(Cc4ccc5c(c4F)CN(C4CCC(=O)NC4=O)C5=O)CC3(F)F)CC2)=C(c2ccc(Cl)cc2)C1 (centres unmarked) | A (0% ≤ substrate protein remaining % ≤ 80%) |
| O=C1CCC(N2Cc3cc(CN4CCC(N5CCN(C(c6ccccc6)c6ccccc6)CC5)CC4)ccc3C2=S)C(=O)N1 (centres unmarked) | B (80%< substrate protein remaining %≤ 100%) |
| O=C1CCC(N2Cc3cc(CN4CCC(N5CCN(c6noc7cc(F)ccc67)CC5)C(F)(F)C4)ccc3C2=S)C(=O)N1 (centres unmarked) | B (80%< substrate protein remaining %≤ 100%) |

target: IKZF3 (Homo sapiens, UniProt Q96SW2+Q9UKT9); assay: as above; details: 24 hours treatment, compounds at 50 nM and 500 nM (concentration behind the class not stated)

| SMILES | substrate protein remaining % (IKZF3) |
| --- | --- |
| O=C1CCC(N2Cc3cc(C(=O)N4CCC(N5CCN(C(c6ccccc6)c6ccccn6)CC5)C(F)(F)C4)ccc3C2=O)C(=O)N1 (centres unmarked) | A (0% ≤ substrate protein remaining % ≤ 80%) |
| O=C1CCC(N2Cc3cc(CCN4CCC(N5CCC(c6noc7cc(F)ccc67)CC5)C(F)(F)C4)ccc3C2=O)C(=O)N1 (centres unmarked) | A (0% ≤ substrate protein remaining % ≤ 80%) |
| O=C1CCC(N2Cc3c(CN4CCC(N5CCN(c6noc7cc(F)ccc67)CC5)CC4)cccc3C2=S)C(=O)N1 (centres unmarked) | B (80%< substrate protein remaining %≤ 100%) |
| CC1(C)CCC(C(=O)N2CCN(C3CCN(Cc4ccc5c(c4F)CN(C4CCC(=O)NC4=O)C5=O)CC3(F)F)CC2)=C(c2ccc(Cl)cc2)C1 (centres unmarked) | A (0% ≤ substrate protein remaining % ≤ 80%) |
| O=C1CCC(N2Cc3cc(CN4CCC(N5CCN(C(c6ccccc6)c6ccccc6)CC5)CC4)ccc3C2=S)C(=O)N1 (centres unmarked) | B (80%< substrate protein remaining %≤ 100%) |
| O=C1CCC(N2Cc3cc(CN4CCC(N5CCN(c6noc7cc(F)ccc67)CC5)C(F)(F)C4)ccc3C2=S)C(=O)N1 (centres unmarked) | A (0% ≤ substrate protein remaining % ≤ 80%) |

target: CK1α (Homo sapiens, UniProt P48729+Q96SW2); assay: as above; details: 24 hours treatment, compounds at 50 nM and 500 nM (concentration behind the class not stated)

| SMILES | substrate protein remaining % (CK1a) |
| --- | --- |
| O=C1CCC(N2Cc3cc(C(=O)N4CCC(N5CCN(C(c6ccccc6)c6ccccn6)CC5)C(F)(F)C4)ccc3C2=O)C(=O)N1 (centres unmarked) | B (80%< substrate protein remaining %≤ 100%) |
| O=C1CCC(N2Cc3cc(CCN4CCC(N5CCC(c6noc7cc(F)ccc67)CC5)C(F)(F)C4)ccc3C2=O)C(=O)N1 (centres unmarked) | A (0% ≤ substrate protein remaining % ≤ 80%) |
| O=C1CCC(N2Cc3c(CN4CCC(N5CCN(c6noc7cc(F)ccc67)CC5)CC4)cccc3C2=S)C(=O)N1 (centres unmarked) | A (0% ≤ substrate protein remaining % ≤ 80%) |
| CC1(C)CCC(C(=O)N2CCN(C3CCN(Cc4ccc5c(c4F)CN(C4CCC(=O)NC4=O)C5=O)CC3(F)F)CC2)=C(c2ccc(Cl)cc2)C1 (centres unmarked) | B (80%< substrate protein remaining %≤ 100%) |
| O=C1CCC(N2Cc3cc(CN4CCC(N5CCN(C(c6ccccc6)c6ccccc6)CC5)CC4)ccc3C2=S)C(=O)N1 (centres unmarked) | B (80%< substrate protein remaining %≤ 100%) |
| O=C1CCC(N2Cc3cc(CN4CCC(N5CCN(c6noc7cc(F)ccc67)CC5)C(F)(F)C4)ccc3C2=S)C(=O)N1 (centres unmarked) | B (80%< substrate protein remaining %≤ 100%) |

target: IKZF1 (Homo sapiens, UniProt Q13422+Q96SW2); assay: as above; details: 24 hours treatment, compounds at 50 nM and 500 nM (concentration behind the class not stated)

| SMILES | substrate protein remaining % (IKZF 1) |
| --- | --- |
| O=C1CCC(N2Cc3cc(C(=O)N4CCC(N5CCN(C(c6ccccc6)c6ccccn6)CC5)C(F)(F)C4)ccc3C2=O)C(=O)N1 (centres unmarked) | B (80%< substrate protein remaining %≤ 100%) |
| O=C1CCC(N2Cc3cc(CCN4CCC(N5CCC(c6noc7cc(F)ccc67)CC5)C(F)(F)C4)ccc3C2=O)C(=O)N1 (centres unmarked) | B (80%< substrate protein remaining %≤ 100%) |
| O=C1CCC(N2Cc3c(CN4CCC(N5CCN(c6noc7cc(F)ccc67)CC5)CC4)cccc3C2=S)C(=O)N1 (centres unmarked) | B (80%< substrate protein remaining %≤ 100%) |
| CC1(C)CCC(C(=O)N2CCN(C3CCN(Cc4ccc5c(c4F)CN(C4CCC(=O)NC4=O)C5=O)CC3(F)F)CC2)=C(c2ccc(Cl)cc2)C1 (centres unmarked) | A (0% ≤ substrate protein remaining % ≤ 80%) |
| O=C1CCC(N2Cc3cc(CN4CCC(N5CCN(C(c6ccccc6)c6ccccc6)CC5)CC4)ccc3C2=S)C(=O)N1 (centres unmarked) | B (80%< substrate protein remaining %≤ 100%) |
| O=C1CCC(N2Cc3cc(CN4CCC(N5CCN(c6noc7cc(F)ccc67)CC5)C(F)(F)C4)ccc3C2=S)C(=O)N1 (centres unmarked) | B (80%< substrate protein remaining %≤ 100%) |

target: WEE1 (Homo sapiens, UniProt P30291+Q96SW2); assay: as above; details: 24 hours treatment, compounds at 50 nM and 500 nM (concentration behind the class not stated)

| SMILES | substrate protein remaining % (WEE1) |
| --- | --- |
| O=C1CCC(N2Cc3cc(C(=O)N4CCC(N5CCN(C(c6ccccc6)c6ccccn6)CC5)C(F)(F)C4)ccc3C2=O)C(=O)N1 (centres unmarked) | B (80%< substrate protein remaining %≤ 100%) |
| O=C1CCC(N2Cc3cc(CCN4CCC(N5CCC(c6noc7cc(F)ccc67)CC5)C(F)(F)C4)ccc3C2=O)C(=O)N1 (centres unmarked) | A (0% ≤ substrate protein remaining % ≤ 80%) |
| O=C1CCC(N2Cc3c(CN4CCC(N5CCN(c6noc7cc(F)ccc67)CC5)CC4)cccc3C2=S)C(=O)N1 (centres unmarked) | B (80%< substrate protein remaining %≤ 100%) |
| CC1(C)CCC(C(=O)N2CCN(C3CCN(Cc4ccc5c(c4F)CN(C4CCC(=O)NC4=O)C5=O)CC3(F)F)CC2)=C(c2ccc(Cl)cc2)C1 (centres unmarked) | B (80%< substrate protein remaining %≤ 100%) |
| O=C1CCC(N2Cc3cc(CN4CCC(N5CCN(C(c6ccccc6)c6ccccc6)CC5)CC4)ccc3C2=S)C(=O)N1 (centres unmarked) | B (80%< substrate protein remaining %≤ 100%) |
| O=C1CCC(N2Cc3cc(CN4CCC(N5CCN(c6noc7cc(F)ccc67)CC5)C(F)(F)C4)ccc3C2=S)C(=O)N1 (centres unmarked) | A (0% ≤ substrate protein remaining % ≤ 80%) |

target: GSPT1 (Homo sapiens, UniProt P15170+Q96SW2); assay: as above; details: 24 hours treatment, compounds at 50 nM and 500 nM (concentration behind the class not stated)

| SMILES | substrate protein remaining % (GSPT1) |
| --- | --- |
| O=C1CCC(N2Cc3cc(C(=O)N4CCC(N5CCN(C(c6ccccc6)c6ccccn6)CC5)C(F)(F)C4)ccc3C2=O)C(=O)N1 (centres unmarked) | A (0% ≤ substrate protein remaining % ≤ 80%) |
| O=C1CCC(N2Cc3cc(CCN4CCC(N5CCC(c6noc7cc(F)ccc67)CC5)C(F)(F)C4)ccc3C2=O)C(=O)N1 (centres unmarked) | A (0% ≤ substrate protein remaining % ≤ 80%) |
| O=C1CCC(N2Cc3c(CN4CCC(N5CCN(c6noc7cc(F)ccc67)CC5)CC4)cccc3C2=S)C(=O)N1 (centres unmarked) | A (0% ≤ substrate protein remaining % ≤ 80%) |
| CC1(C)CCC(C(=O)N2CCN(C3CCN(Cc4ccc5c(c4F)CN(C4CCC(=O)NC4=O)C5=O)CC3(F)F)CC2)=C(c2ccc(Cl)cc2)C1 (centres unmarked) | A (0% ≤ substrate protein remaining % ≤ 80%) |
| O=C1CCC(N2Cc3cc(CN4CCC(N5CCN(C(c6ccccc6)c6ccccc6)CC5)CC4)ccc3C2=S)C(=O)N1 (centres unmarked) | A (0% ≤ substrate protein remaining % ≤ 80%) |
| O=C1CCC(N2Cc3cc(CN4CCC(N5CCN(c6noc7cc(F)ccc67)CC5)C(F)(F)C4)ccc3C2=S)C(=O)N1 (centres unmarked) | B (80%< substrate protein remaining %≤ 100%) |

target: CRBN (Homo sapiens, UniProt Q96SW2); assay: CRBN binding affinity by HTRF (CEREBLON BINDING kit); details: CRBN binding, HTRF, compound at 0.5 µM

| SMILES | Inhibition Rate at 0.5 µM (%) |
| --- | --- |
| O=C1CCC(N2Cc3cc(C(=O)N4CCC(N5CCN(C(c6ccccc6)c6ccccn6)CC5)C(F)(F)C4)ccc3C2=O)C(=O)N1 (centres unmarked) | a4 (40% < a4 ≤ 53%) |
| O=C1CCC(N2Cc3cc(CCN4CCC(N5CCC(c6noc7cc(F)ccc67)CC5)C(F)(F)C4)ccc3C2=O)C(=O)N1 (centres unmarked) | a8 (80% < a8 ≤100%) |
| O=C1CCC(N2Cc3c(CN4CCC(N5CCN(c6noc7cc(F)ccc67)CC5)CC4)cccc3C2=S)C(=O)N1 (centres unmarked) | a3 (30% < a3 ≤ 40%) |
| O=C1CCC(N2Cc3cc(CN4CCC(N5CCN(C(c6ccccc6)c6ccccc6)CC5)CC4)ccc3C2=S)C(=O)N1 (centres unmarked) | a6 (60% < a6 ≤ 70%) |
| O=C1CCC(N2Cc3cc(CN4CCC(N5CCN(c6noc7cc(F)ccc67)CC5)C(F)(F)C4)ccc3C2=S)C(=O)N1 (centres unmarked) | a5 (53% < a5 ≤ 60%) |

same assay, conditions: CRBN binding, HTRF, compound at 2 µM

| SMILES | Inhibition Rate at 2 µM (%) |
| --- | --- |
| O=C1CCC(N2Cc3cc(C(=O)N4CCC(N5CCN(C(c6ccccc6)c6ccccn6)CC5)C(F)(F)C4)ccc3C2=O)C(=O)N1 (centres unmarked) | a6 (60% < a6 ≤ 70%) |
| O=C1CCC(N2Cc3cc(CCN4CCC(N5CCC(c6noc7cc(F)ccc67)CC5)C(F)(F)C4)ccc3C2=O)C(=O)N1 (centres unmarked) | a8 (80% < a8 ≤100%) |
| O=C1CCC(N2Cc3c(CN4CCC(N5CCN(c6noc7cc(F)ccc67)CC5)CC4)cccc3C2=S)C(=O)N1 (centres unmarked) | a5 (53% < a5 ≤ 60%) |
| O=C1CCC(N2Cc3cc(CN4CCC(N5CCN(C(c6ccccc6)c6ccccc6)CC5)CC4)ccc3C2=S)C(=O)N1 (centres unmarked) | a8 (80% < a8 ≤100%) |
| O=C1CCC(N2Cc3cc(CN4CCC(N5CCN(c6noc7cc(F)ccc67)CC5)C(F)(F)C4)ccc3C2=S)C(=O)N1 (centres unmarked) | a8 (80% < a8 ≤100%) |

same assay, conditions: read-out: HTRF IC50; human Cereblon WT GST-tagged protein; 3 hours at room temperature

| SMILES | IC50 |
| --- | --- |
| CC1(C)CCC(C(=O)N2CCN(C3CCN(Cc4ccc5c(c4F)CN(C4CCC(=O)NC4=O)C5=O)CC3(F)F)CC2)=C(c2ccc(Cl)cc2)C1 (centres unmarked) | 0.5 to 1 µM |
